# Reference: paper PMC7367873, “Dissecting the sequence determinants for dephosphorylation by the catalytic subunits of phosphatases PP1 and PP2A” (Nature Communications, 2020)
# Key:
# [1] = test system: GFP-14-3-3β and its binding proteins; test: GFP-14-3-3β co-IP with LC-MS/MS label-free quantification, untreated versus PP1c-treated; design: species or system human
# Method: (§1) HeLa Kyoto cells expressing transiently transfected pEGFP(C1)-14-3-3β or pEGFP(C1) control plasmid, were incubated with 20 nM Calyculin A (# 9902 S, Cell Signaling Technology) for 12 min. Cells were washed twice on ice with cold PBS and after addition of 500 µL lysis buffer (100 mM NaCl, 10 mM Tris, 0.1% IGEPAL, 1 mM EDTA, 1 mM EGTA, 20 nM Calyculin A, 1x cOmplete Mini protease inhibitor cocktail (Sigma), 1 mM DTT, 1 mM MnCl2) cells were scraped from plates, lysed by 10 pushes through an injection needle (21 G, BD) and the insoluble fraction was pelleted by centrifugation (10 min, 10^4 rcf, 4 °C). Supernatants were then subjected to incubation with 1 µM recombinant phosphatase or buffer for 1 h at 30 °C. Next, we subjected samples to immunoprecipitation using α-GFP nanobodies covalently coupled to agarose beads (2 h, 4 °C, obtained from the EMBL PEPcore Core Facility). Beads were then washed three times with lysis buffer and samples were eluted in 1x LDS sample buffer (Thermo Fisher Scientific) by heating to 70 °C for 10 min.
# (§2) The samples were then reduced with 25 mM dithiothreitol (10 min at 70 °C) and alkylated with 55 mM chloroacetamide (room temperature, 30 min, in the dark). Proteins were run on a precast 4–12% NuPAGE gel (ThermoFisher Scientific) for about 1 cm to concentrate the sample prior to in-gel tryptic digestion, which was performed according to the standard procedures. The peptides obtained were dried to completeness and resuspended in 12 µL of buffer A (0.1% FA), and 5 µL of sample were injected per MS measurement. The experiment was carried out in three independent replicates.
# (§3) The samples were analyzed by LC-MS/MS on a Dionex Ultimate 3000 nano-HPLC coupled online to a Fusion Lumos Tribrid mass spectrometer (Thermo Fisher Scientific). Peptides were delivered to a trap column (75 µm × 2 cm, packed in-house with 5 µm C18 resin; Reprosil PUR AQ, Dr. Maisch) and washed using 0.1% FA at a flow rate of 5 µL/min for 10 min. Subsequently, peptides were transferred to an analytical column (75 µm × 45 cm, packed in-house with 3 µm C18 resin; Reprosil Gold) applying a flow rate of 300 nL/min and separated using a 60 min linear gradient from 4% to 32% LC solvent B (0.1% FA, 5% DMSO in ACN) in LC solvent A (0.1% FA in 5% DMSO). The eluate from the analytical column was sprayed via a stainless steel emitter (Thermo Fisher Scientific) at a source voltage of 2.1 kV into the mass spectrometer. The transfer capillary was heated to 275 °C. The Fusion Lumos was operated in positive ionization mode and data-dependent acquisition (DDA), automatically switching between MS1 and MS2 spectrum acquisition. Full scan MS1 spectra were recorded in the Orbitrap from 360 to 1300 m/z at a resolution of 60k (automatic gain control (AGC) target value of 4e5 charges, maximum injection time (maxIT) of 50 ms). Up to 20 peptide precursors were isolated (isolation window, 1.7 m/z; maximum injection time, 25 ms; and AGC value, 1e5), fragmented by high-energy collision-induced dissociation (HCD) using 30% normalized collision energy (NCE), and analyzed at a resolution of 15k in the Orbitrap. Precursor ions that were singly charged, unassigned, or with charge states >6+ were excluded. The dynamic exclusion duration of fragmented precursor ions was 20 s.
# (§4) Peptide and protein identification and LFQ were performed using MaxQuant software (version 1.6.1.0)[64] by searching the data against all canonical protein sequences as annotated in the Swissprot reference database (human proteins only, 20193 entries, downloaded 22 March 2016, internally annotated with PFAM domains) using the embedded search engine Andromeda[65]. The MaxQuant search was performed using two variable modifications; oxidation of methionine and N-terminal protein acetylation. Carbamidomethylation on cysteines was specified as a fixed modification. Trypsin (Trypsin/P) was specified as the proteolytic enzyme with up to two allowed missed cleavage sites. […]
# GFP-14-3-3β = GFP-14-3-3β co-IP with LC-MS/MS, untreated GFP-14-3-3β versus GFP control (14-3-3 interactome); format: binding, human
# Method: as §1, §2, §3, §4
# [2] = PP1 vs untreated, label-free quantification
# [3] = untreated vs GFP, label-free quantification
substance,measurement,setting,value
RAF1,"Difference (log2), PP1 vs untreated","[1]; pairwise comparison PP1 vs untreated, student's t-test, 3 replicates each, LC-MS/MS label-free quantification",-2.805 log2
same,"Difference (log2), untreated vs GFP","GFP-14-3-3β; pairwise comparison untreated GFP-14-3-3β vs GFP, student's t-test, 3 replicates each, LC-MS/MS label-free quantification",3.818 log2
CDK1,"Difference (log2), PP1 vs untreated","[1]; GFP-14-3-3β co-IP LC-MS/MS, PP1 vs untreated, student's t-test, label-free quantification, 3 replicates each",-0.4882 log2
same,"Difference (log2), untreated vs GFP","GFP-14-3-3β; GFP-14-3-3β co-IP LC-MS/MS, untreated vs GFP, student's t-test, label-free quantification, 3 replicates each",1.267 log2
PRRC2C,"Difference (log2), PP1 vs untreated",[1]; [2],0.864 log2
same,"Difference (log2), untreated vs GFP",GFP-14-3-3β; [3],0.6801 log2
PRRC2B,"Difference (log2), PP1 vs untreated","[1]; PP1 vs untreated, LFQ intensities, replicates 1-3",-1.993 log2
same,"Difference (log2), untreated vs GFP","GFP-14-3-3β; untreated vs GFP, LFQ intensities, replicates 1-3",0.5414 log2
IGF2BP1,"Difference (log2), PP1 vs untreated",[1]; [2],1.142 log2
same,"Difference (log2), untreated vs GFP",GFP-14-3-3β; [3],0.572 log2
IGF2BP3,Difference,"[1]; GFP-14-3-3β co-IP, PP1vsUntrted, Perseus raw output, LFQ intensity difference",1.11
same,"Difference (log2), PP1 vs untreated",[1]; [2],1.11 log2
same,Difference,"GFP-14-3-3β; UntrtedvsGFP, Perseus raw output, LFQ intensity difference",-0.03145
same,"Difference (log2), untreated vs GFP",GFP-14-3-3β; [3],-0.03145 log2
RPA1,"Difference (log2), PP1 vs untreated","[1]; log2 difference, pairwise comparison PP1 vs untreated, label-free quantification, 3 replicates each",1.304
same,"Difference (log2), untreated vs GFP","GFP-14-3-3β; log2 difference, pairwise comparison untreated vs GFP, label-free quantification, 3 replicates each",-2.268
